This series deals with Saccharomyces cerevisiae. Nature of the series: Growth inhibition of Saccharomyces cerevisiae INVSc1 at 100 uM after 18 to 20 hr. In kind it is organism-based. The conditions noted are these: in vivo. The procedure, abridged: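 Yeast strains expressing the active elongases were induced in raffinose/galactose medium with herbicide at 100 μM for the 18–20 h incubation. Growth was followed by optical density and compared with cultures lacking inhibitor.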

The values below come from ChEMBL document CHEMBL3045755, “Specific and differential inhibition of very-long-chain fatty acid elongases from Arabidopsis thaliana by different herbicides” (Proc Natl Acad Sci U S A, 2004).

For `CC(C)OP(=S)(OC(C)C)SCCNS(=O)(=O)c1ccccc1`, the Activity entry was “Non-toxic”.
